These are literature values, as cited in patent US20090010992A1 (priority 2007, published 2009).

Only a part of the results on these compounds is given; other tests are left out.

The conditions of data set [1]: in vivo.
The conditions of data set [2]: tablets containing 400 μg of fentanyl.

In the case of `CCC(=O)N(c1ccccc1)C1(COC)CCN(CCc2cccs2)CC1`, in data set [1], the GI bioavailability was 12%.

Consider `CCC(=O)N(c1ccccc1)C1CCN(CCc2ccccc2)CC1`, for which, in data set [2], the peak plasma level was 2.5 ng/mL and the “time of peak plasma level post-administration” value was 5 min.
